According to patent publication US20220088014A1 (priority 2019, published 2022):

Biological target: mu-opiate receptors (Mus musculus, UniProt P42866)
Assay: Mouse tail flick assay: analgesia after 14-day chronic administration
Conditions: acute Vehicle

O=C1CN2c3c(cccc3[C@@H]3CN(CCCc4noc5cc(F)ccc45)CC[C@@H]32)N1
Latency ((B) chronic Ex. 3, 0.3 mg/kg): 0.893 s
Latency ((C) chronic Ex. 3, 3.0 mg/kg): 1.04 s
